Experimental data as given in ChEMBL document CHEMBL1133383, “Synthesis and enzyme inhibitory activities of a series of lipidic diamine and aminoalcohol derivatives on cytosolic and secretory phospholipases A2” (Bioorg Med Chem Lett, 2000).

Test system: Phospholipase A2 group IB, pancreatic (Sus scrofa)
Test: Inhibition of secretory PLA2 activity in porcine pancreas using [3H]-oleate labelled membranes at a concentration of 10 uM

Row | Compound | I [%]
1 | CCCCCCCCCCCCCCC(CO)NCC (configuration not stated) | 81.9
2 | CCCCCCCCCCCCCCC(N)CN(CC)CC (configuration not stated) | 68.5
